By UniProt entry, the sequences of proteins in these tests, tags left out. Residues count along the entry.
UniProt P06276, 29-602: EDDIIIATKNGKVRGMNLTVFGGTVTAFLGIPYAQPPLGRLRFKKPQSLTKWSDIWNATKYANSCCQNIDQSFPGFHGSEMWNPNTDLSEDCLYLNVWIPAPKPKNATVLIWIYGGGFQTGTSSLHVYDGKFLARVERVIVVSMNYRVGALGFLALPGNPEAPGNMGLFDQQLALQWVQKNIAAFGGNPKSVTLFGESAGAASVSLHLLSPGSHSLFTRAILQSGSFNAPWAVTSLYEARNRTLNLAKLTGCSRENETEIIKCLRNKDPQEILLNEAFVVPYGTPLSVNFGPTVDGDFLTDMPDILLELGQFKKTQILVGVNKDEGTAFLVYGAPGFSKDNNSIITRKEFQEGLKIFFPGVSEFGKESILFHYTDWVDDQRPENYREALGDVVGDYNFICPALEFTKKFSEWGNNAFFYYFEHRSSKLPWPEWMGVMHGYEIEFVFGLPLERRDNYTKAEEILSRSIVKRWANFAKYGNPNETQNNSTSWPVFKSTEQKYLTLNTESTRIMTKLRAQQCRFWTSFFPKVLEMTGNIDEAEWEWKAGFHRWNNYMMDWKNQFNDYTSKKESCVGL

What follows are molecules tested against T1, human plasma BChE (Homo sapiens, UniProt P06276) (assay: BChE inhibition, IC(50) by logit plot). Conditions: BChE compared with AChE.
T1 construct: human plasma BChE; from tissue; host or cells: human plasma
Format: biochemical
Procedure: The IC (50) values can be determined for such inhibitors using methods well known in the art. In such assay the pharmacological activity of each compound, as an IC (50), defined as the concentration, in nanomoles, required to inhibit 50% of the enzyme activity of AChE and BChE, is determined separately. For determination of IC (50) values, the enzyme activity of each concentration was expressed as a percent of that determined in the absence of each compound. This then was transformed into a logit format, where logit=In (% activity/[100-% activity]), and was plotted as a function of the log concentration of the compound. IC (50) values (i.e., logit=In (50/[100−5O]=0) were determined only from correlation coefficients (r^2) of less than −0.985 and when more than 50% inhibition was achieved from duplicate samples. The selectivity ratio is then determined by comparing the IC (50) values obtained for each compound with AChE to that for BChE.
With CNC(=O)Oc1ccc2c(c1)[C@]1(C)CCNC1N2C (stereo partly drawn) [Compound 8, N^1-norphysostigmine] the “selectivity of inhibitory action for BChE versus AChE” value (“selectivity of inhibitory action” below) was “provide BChE selectivity”.
In the case of CNC(=O)Oc1ccc2c(c1)C1(C)CCN(Cc3ccccc3)C1N2C (stereo not drawn) [Compound 12, N^1-benzylnorphysostigmine], the “selectivity of inhibitory action” value is reported as “provide BChE selectivity”.
In the case of CNC(=O)Oc1ccc2c(c1)C1(C)CCN(CCc3ccccc3)C1N2C (stereo not drawn) [Compound 16, N^1-phenethylnorphysostigmine], the “selectivity of inhibitory action” value is reported as “provide BChE selectivity”.

— patent US6683105B2 (priority 1997, dated 2004)
